From patent US7629315B2, “Compositions for blocking the inhibitory effect of human CRP on human leptin” (University of Pittsburgh of the Commonwealth System of …, priority 2005, dated 2009)

System: leptin-induced tyrosine phosphorylation of STAT3
Assay: Leptin-induced STAT3 tyrosine phosphorylation in HEK293 cells expressing OB-Rb (western blot), human leptin
Format: cell-based
Conditions: human leptin 2 nM, protein pre-incubated with leptin
Method: 2. Signaling Studies: A HEK293 cell line stably expressing the human long-form receptor, OB-Rb (M. Friedman-Einat et al., 2003, Regul. Pept. 111, 77) was serum starved for 2-h before addition of leptin and CRP. Leptin (SEQ ID NO:4), in the presence or absence of C-reactive proteins, was pre-incubated in μ-MEM for 30 minutes at 37° C. before applied to the cells. After a 30-incubation with leptin (SEQ ID NO:4), the cells were harvested in a previously described protein lysis buffer. A. Z. Zhao et al., 1997, Proc. Natl. Acad. Sci. U.S.A. 94, 322. The protein extract was subjected to a western blot assay with an anti-phospho-STAT3 specific antibody (Cell Signaling, Beverly, Mass.). For studies involving the primary hypothalamic neurons, the rat hypothalamus was surgically isolated right after euthanasia, and immediately placed in the DMEM for incubation with leptin in the presence or absence of CRP.
To determine if the interaction between CRP and leptin influences cellular actions of leptin, we assessed the ability of leptin to stimulate tyrosine phosphorylation of STAT3 and PI3-kinase activity in the presence of CRP in vitro.

human serum albumin: specificity control protein [reference compound]
effect on leptin-induced tyrosine phosphorylation of STAT3: did not affect the stimulation of STAT3 by leptin
effect on leptin-induced tyrosine phosphorylation of STAT3 (listed as Human serum albumin): no appreciable effect on leptin-induced STAT3 phosphorylation
effect on leptin-induced tyrosine phosphorylation of STAT3 (listed as human albumin): did not significantly alter leptin-stimulated phosphorylation of STAT3
